Assay results from patent publication US20190185518A9, “WARHEAD-CONTAINING PEPTIDOMIMETIC MACROCYCLES AS MODULATORS OF BFL-1” (AILERON Therapeutics, Inc., priority 2017, published 2019).

The chains behind the UniProt entries cited, without tags or fusion partners.
UniProt Q07820, whole entry, species assumed: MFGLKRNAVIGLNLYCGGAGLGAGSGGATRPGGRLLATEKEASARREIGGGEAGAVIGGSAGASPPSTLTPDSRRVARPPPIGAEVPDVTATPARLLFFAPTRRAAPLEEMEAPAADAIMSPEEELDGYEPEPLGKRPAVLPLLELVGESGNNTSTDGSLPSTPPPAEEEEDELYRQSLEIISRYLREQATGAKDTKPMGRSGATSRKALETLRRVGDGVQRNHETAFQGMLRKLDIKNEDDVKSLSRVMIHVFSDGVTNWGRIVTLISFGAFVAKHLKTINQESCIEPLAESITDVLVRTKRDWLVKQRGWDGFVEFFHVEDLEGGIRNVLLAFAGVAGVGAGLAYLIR

Target: Mcl-1 (Homo sapiens, UniProt Q07820)
Assay: Ki determination for Mcl-1 (BCL-2 family binding spectrum)
Details: TABLE 8
Text: To assess the binding and affinity of compounds that antagonize the interaction between a peptide and an acceptor protein, a fluorescence polarization assay (FPA) utilizing a fluoresceinated peptidomimetic macrocycle derived from a peptidomimetic precursor sequence is used, for example. The FPA technique measures the molecular orientation and mobility using polarized light and fluorescent tracer. […] A compound that antagonizes the interaction between the fluoresceinated peptidomimetic macrocycle and an acceptor protein will be detected in a competitive binding FPA experiment.
Antagonist binding activity is measured, for example, by fluorescence polarization on a luminescence spectrophotometer (e.g. Perkin-Elmer LS50B). Kd values may be determined by nonlinear regression analysis using, for example, Graphpad Prism software (GraphPad Software, Inc., San Diego, Calif.).

Which Ki does the source give for `CN(C)CC[C@H](CSc1ccccc1)Nc1ccc(S(=O)(=O)NC(=O)c2ccc(N3CCN(Cc4ccccc4-c4ccc(Cl)cc4)CC3)cc2)cc1[N+](=O)[O-]` [ABT-737, reference compound] here?
The Ki was over 1000 nM.
